Results as given in ChEMBL document CHEMBL3596151, “Elucidation of the in vitro and in vivo activities of bridged 1,2,4-trioxolanes, bridged 1,2,4,5-tetraoxanes, tricyclic monoperoxides, silyl peroxides, and hydroxylamine derivatives against Schistosoma mansoni” (Bioorg Med Chem, 2015).

Tested on: L6
Assay: Cytotoxicity against rat L6 cells assessed as decrease in cell viability after 72 hrs by resazurin dye based fluorescence analysis
Conditions: for Activity: rat, l6, 72 h

| SMILES | Activity | IC50 (l6) [µM] |
| --- | --- | --- |
| CC(=O)CCC1(Cc2ccc([N+](=O)[O-])cc2)[C@]2(C)OO[C@@]1(C)OO2 (stereo not given in full) | Non-toxic |  |
| CC(C)C[C@]12OO[C@](C)(OO1)C2C (stereo not given in full) | Non-toxic |  |
| CC(C)(C)[C@]12C[C@](C(C)(C)C)(OO1)OO2 | Non-toxic |  |
| CC[C@]12C[C@](CC(C)C)(OO1)OO2 | Non-toxic |  |
| CC(C)C[C@]12C[C@](C)(OO1)OO2 |  | 4.4 |
